According to ChEMBL document CHEMBL4346659, “Design, synthesis and evaluation of novel 7H-pyrrolo[2,3-d]pyrimidin-4-amine derivatives as potent, selective and reversible Bruton's tyrosine kinase (BTK) inhibitors for the treatment of rheumatoid arthritis” (Eur J Med Chem, 2019):

Tests used:
Homo sapiens [1] = organism: Homo sapiens; test: Selectivity ratio of IC50 for BLK (unknown origin) to IC50 for BTK (unknown origin)
Homo sapiens [2] = organism: Homo sapiens; test: Selectivity ratio of IC50 for human recombinant FYN to IC50 for BTK (unknown origin)
Homo sapiens [3] = organism: Homo sapiens; test: Selectivity ratio of human recombinant LCK to IC50 for BTK (unknown origin)
Homo sapiens [4] = organism: Homo sapiens; test: Selectivity ratio of IC50 for human recombinant LYN to IC50 for BTK (unknown origin)
Homo sapiens [5] = organism: Homo sapiens; test: Selectivity ratio of IC50 for human recombinant SRC to IC50 for BTK (unknown origin)
Homo sapiens [6] = organism: Homo sapiens; test: Selectivity ratio of IC50 for human recombinant HER2 to IC50 for BTK (unknown origin)
Homo sapiens [7] = organism: Homo sapiens; test: Selectivity ratio of human recombinant YES to IC50 for BTK (unknown origin)
Homo sapiens [8] = organism: Homo sapiens; test: Selectivity ratio of IC50 for HCK (unknown origin) to IC50 for BTK (unknown origin)
Homo sapiens [9] = organism: Homo sapiens; test: Selectivity ratio of IC50 for human recombinant EGFR to IC50 for BTK (unknown origin)
Homo sapiens [10] = organism: Homo sapiens; test: Selectivity ratio of IC50 for human recombinant ITK to IC50 for BTK (unknown origin)
Homo sapiens [11] = organism: Homo sapiens; test: Selectivity ratio of IC50 for human recombinant FGR to IC50 for BTK (unknown origin)
Homo sapiens [12] = organism: Homo sapiens; test: Selectivity ratio of IC50 for human recombinant JAK3 to IC50 for BTK (unknown origin)
Homo sapiens [13] = organism: Homo sapiens; test: Selectivity ratio of IC50 for HER4 (unknown origin) to IC50 for BTK (unknown origin)
Homo sapiens [14] = organism: Homo sapiens; test: Selectivity ratio of IC50 for human recombinant TXK to IC50 for BTK (unknown origin)
Homo sapiens [15] = organism: Homo sapiens; test: Selectivity ratio of IC50 for TEC (unknown origin) to IC50 for BTK (unknown origin)
Homo sapiens [16] = organism: Homo sapiens; test: Selectivity ratio of IC50 for BMX (unknown origin) to IC50 for BTK (unknown origin)

- Ratio IC50 (Homo sapiens [1]): 3
- Ratio IC50 (Homo sapiens [2]): 77
- Ratio IC50 (Homo sapiens [3]): 10
- Ratio IC50 (Homo sapiens [4]): 3
- Ratio IC50 (Homo sapiens [5]): 41
- Ratio IC50 (Homo sapiens [6]): > 333
- Ratio IC50 (Homo sapiens [7]): 29
- Ratio IC50 (Homo sapiens [8]): 11
- Ratio IC50 (Homo sapiens [9]): > 333
- Ratio IC50 (Homo sapiens [10]): > 333
- Ratio IC50 (Homo sapiens [11]): 9
- Ratio IC50 (Homo sapiens [12]): > 333
- Ratio IC50 (Homo sapiens [13]): 128
- Ratio IC50 (Homo sapiens [14]): 119
- Ratio IC50 (Homo sapiens [15]): 15
- Ratio IC50 (Homo sapiens [16]): 28
SMILES: Nc1ncnc2c1c(-c1ccc(Oc3ccccc3)cc1)cn2C[C@H]1CCCN1C[C@@H]1CO1
